## scFv variants of Ab-14 (heavy chain) against a SARS-CoV-2 spike peptide

Source: Engelhart et al. 2022 (doi:10.1038/s41597-022-01779-4), MIT Lincoln Laboratory and A-Alpha Bio; data file from the FLAb repository.

All variants were tested on one target, the spike HR2 peptide PDVDLGDISGINAS (SARS-CoV-2).

Ab-14 is the parent antibody, in scFv form: VH, then the linker GGGGSGGGGSGGGGS, then VL. The light chain is unchanged in all variants.
VH: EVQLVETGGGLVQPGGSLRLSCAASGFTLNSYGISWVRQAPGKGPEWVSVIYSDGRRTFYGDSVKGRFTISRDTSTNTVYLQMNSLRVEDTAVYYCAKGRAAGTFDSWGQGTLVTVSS
VL: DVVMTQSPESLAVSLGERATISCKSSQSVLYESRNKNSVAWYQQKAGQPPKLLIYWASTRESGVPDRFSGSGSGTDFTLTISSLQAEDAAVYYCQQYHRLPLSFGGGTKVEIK

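The parent was found by panning a naive human phage display library on the peptide. Library AAYL49 holds single substitutions and randomly drawn double and triple substitutions in the CDRs. The assay is AlphaSeq: two haploid yeast populations carry antibody and antigen on their surface. Binding brings cells together so that they mate, and sequencing counts the barcode pairs among the diploids. The ratio of observed to expected reads was calibrated, replicate by replicate, on BCL2-family standards whose Kd was known from biolayer interferometry. Each pool was mated in three replicate cultures.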

Each variant is given by its three heavy chain CDRs, as the data file delimits them; those of the parent are GFTLNSYGIS, VIYSDGRRTFYGDSVK, GRAAGTFDS. The read-out is the apparent dissociation constant on a log10 scale (nM): the lower, the stronger. Replicates are averaged; those with no signal do not enter the mean. A pair that was not seen in any replicate is written "nd"; this usually means weak binding, but a binder can also be missed. Empty control strains, which show no peptide, gave a signal in 15% of pairings with library AAYL49; the median was 4.06 and 95% of these signals were weaker than 2.83. No background was subtracted. For each scFv, signals with the empty controls are counted beside the result.

CDR-H1	CDR-H2	CDR-H3	log10 Kd (nM), mean	seen in	signal with controls
GFTLNMYFIS	VIYSDGRRTFYYDSVK	GRAAGTFDS	3.41	1 of 3	0 of 9
GGHYNSYGIS	VIYSDGRRTFYGDSVK	GRAAGTFDS	3.79	1 of 3	2 of 9
GFQSNSYGIS	VIVSDGRRTFYGDSVK	GRAAGTFDS	1.92	1 of 3	0 of 9
GDTLNSYGNS	VIYSDGRRTFYGDSVK	GRAAMTFDS	nd	0 of 3	2 of 9
GFTLNSYGIS	VIYSDGRRWFYGDSMK	GSAAGTFDS	3.48	1 of 3	1 of 9
GFTLNSVGIS	VKYSDGGRTFYGDSVK	GRAAGTFDS	2.79	1 of 3	0 of 9
GFTLNSAGIS	PIYSDGRRTFYKDSVK	GRAAGTFDS	1.92	1 of 3	1 of 9
GLTLNSYGIS	VIYSDGRRTEYGDSVK	GRAAGTYDS	nd	0 of 3	0 of 9
GFTLMSYGIS	VIYSDGRRTFYGDSVK	DRAAGTWDS	nd	0 of 3	0 of 9
GFTLNSYGIH	VWGSDGRRTFYGDSVK	GRAAGTFDS	4.24	1 of 3	1 of 9
GFTLNSYGIS	VIYSDGRRKFYGDSVK	GRAALTFDW	nd	0 of 3	0 of 9
GFNLNSYGIS	VIYSDGRRIFYGDSVK	MRAAGTFDS	5.52	2 of 3	1 of 9
GVTLNSYGIS	VIYSDGRRTGYGDSVK	GRAQGTFDS	nd	0 of 3	5 of 9
GFPLNSYGIS	VIYIDGRRTFPGDSVK	GRAAGTFDS	4.49	2 of 3	2 of 9
GQYLNSYGIS	VIYSDGRRTFYGDSVK	GRAARTFDS	nd	0 of 3	0 of 9
GFTLNSYGIS	VIYSIGRRTFYGDCVN	GRAAGTFDS	4.53	1 of 3	1 of 9
GFTLNSYGIS	MIYSDGRRTFYGDSVK	GRAAMTFLS	nd	0 of 3	0 of 9
GFTLNSYGIS	VIYSDGRWTFNGDSVK	GRAAGTFDC	3.48	1 of 3	2 of 9
GLTLNSYGII	VIYSDGRRTFYGDSVK	GRAALTFDS	nd	0 of 3	1 of 9
GFTLNGYWIS	VIYSDGRRTFYGDDVK	GRAAGTFDS	nd	0 of 3	0 of 9
GFTLNSPGIS	VIYSDGRRWFYGDSVK	GRAAGTFDS	nd	0 of 3	5 of 9
MFTLNSYGIS	VIGSDGRRTFYGDSVC	GRAAGTFDS	nd	0 of 3	0 of 9
GFTLNSYGIS	VIYLDGRRTFYGDSVK	GRAAGTSDW	nd	0 of 3	0 of 9
GFTLNSYGIS	VMYSDGRRTFYGDSVK	GRAADTFDS	nd	0 of 3	0 of 9
GFTLNSLEIS	VIYSDGRYTFYGDSVK	GRAAGTFDS	nd	0 of 3	0 of 9
GFTLNSYGIN	VIYSDYVRTFYGDSVK	GRAAGTFDS	4.87	2 of 3	1 of 9
GFTLNSYGIS	CIYSDGRRTFYGDSVV	GRAEGTFDS	nd	0 of 3	1 of 9
GHTLNSYGIS	VIYSDGRRPFYGDSVN	GRAAGTFDS	nd	0 of 3	2 of 9
GFTGNSYGIS	VIYSDGRRTFYGDSVK	GRAAGCFDN	nd	0 of 3	1 of 9
GFTLNSYGPS	VIQSDGRRTFYGDSVK	GRAAGTFDQ	4.66	1 of 3	4 of 9
GFTLNSYGIS	VWYSDGRRTPYGDSVK	GRAAGTFDS	nd	0 of 3	1 of 9
GFTLNSYGIS	VIYSDGRTTFYGDSVK	YRAAGNFDS	5.36	1 of 3	3 of 9
DFTLNSYGIS	VIYSDGRRTFYGDSVK	GRAATTFDS	nd	0 of 3	0 of 9
GFTLNSYGIS	VIMSDGRRTFYGDSVK	GRANGTFIS	4.79	2 of 3	4 of 9
GFTLNSEGIS	VIYDDGRRTFHGDSVK	GRAAGTFDS	4.99	2 of 3	7 of 9
GFTLNSAGIV	VIYSDGLRTFYGDSVK	GRAAGTFDS	nd	0 of 3	1 of 9
GFTLNSYGIS	VIYSDGLRTFYGDSVW	GRAAGTFDS	1.56	3 of 3	1 of 9
GFTLNSYGIS	VIYSFGRRTYYGDSVK	GRAAGTTDS	nd	0 of 3	0 of 9
GFTLNSYGIS	VIYSRGRRTFYGDSVK	GRAATTFCS	nd	0 of 3	0 of 9
GFTLNSYGIS	VIYSDGRRTIYGDSVP	GRAAGVFDS	5.45	1 of 3	2 of 9
GFTLNSYGIS	TIVSDGRRTFYGDSVK	GRAAGTFDG	nd	0 of 3	2 of 9
GFTLNCYGIS	VIYSDGRATFYGDSVK	GRAAGTFDS	nd	0 of 3	1 of 9
GFTLNSYGIS	VIYSDGRWTFYGISVK	QRAAGTFDS	nd	0 of 3	0 of 9
GFTENSQGIS	VIYSDGRRTFYGDSVK	WRAAGTFDS	4.22	3 of 3	6 of 9
GFTLNSTGIS	VIYSDGRRTFYGDSIK	GRAAGTFDS	2.89	3 of 3	1 of 9
GFTLNSYGIR	VIYSDGRRGFYGDSVM	GRAAGTFDS	4.24	1 of 3	5 of 9
GFTLNEYGIS	VIYSDGRCTFYGDSVK	GRAAGTFHS	6.10	1 of 3	1 of 9
GFTLNSYGIS	VITSKGRRHFYGDSVK	GRAAGTFDS	4.13	2 of 3	2 of 9
GFTLNSSGIS	VIYSDCRRTFYGDSVY	GRAAGTFDS	3.52	1 of 3	1 of 9
GFTLNSSGIS	VIYSDGRRTFYGDSVK	GCAAGTFDS	4.76	3 of 3	4 of 9
GFTLNSYGIS	VIYSDGRRTFYGDYVK	ERHAGTFDS	3.25	1 of 3	0 of 9
GFTLNSYGIS	VIYSIGRRTAYDDSVK	GRAAGTFDS	nd	0 of 3	1 of 9
GFTLNSYGTS	VIYSDGRRTFYGQSVK	GRAAGTFWS	nd	0 of 3	1 of 9
GQTLNSYGIS	VIYFDGRRTFYGDSVK	GRAAGTFDS	2.43	3 of 3	2 of 9